Patent EP0374267A1, “DERIVATIVES OF PLATINUM (P) WITH A POLYANION OF DEOXYRIBONUCLEIC ACID, METHOD FOR OBTAINING THEM AND PHARMACEUTICAL ANTITUMOR PREPARATION BASED ON THEM” (priority 1988, dated 1989)

Assay: Solubility

For “Poly{hexakis [chlor- amminaquaplatin(II)]} - µ - desoxyribonukleat [Verbindung III]”, which “Löslichkeit in einer Lösung, die 18 mMol/l NaCl und 1,8 mMol/l Natriumzitrat enthält” value is on record?
Its value is 0,005%.

And the “Löslichkeit in Wasser” value (20°C)?
The value was 0,0005%.
